Test results as given in ChEMBL document CHEMBL2385030, “Crystallographic Investigation and Selective Inhibition of Mutant Isocitrate Dehydrogenase” (ACS Med Chem Lett, 2013).

The chains behind the UniProt entries cited, without tags or fusion partners.
UniProt O75874, whole entry: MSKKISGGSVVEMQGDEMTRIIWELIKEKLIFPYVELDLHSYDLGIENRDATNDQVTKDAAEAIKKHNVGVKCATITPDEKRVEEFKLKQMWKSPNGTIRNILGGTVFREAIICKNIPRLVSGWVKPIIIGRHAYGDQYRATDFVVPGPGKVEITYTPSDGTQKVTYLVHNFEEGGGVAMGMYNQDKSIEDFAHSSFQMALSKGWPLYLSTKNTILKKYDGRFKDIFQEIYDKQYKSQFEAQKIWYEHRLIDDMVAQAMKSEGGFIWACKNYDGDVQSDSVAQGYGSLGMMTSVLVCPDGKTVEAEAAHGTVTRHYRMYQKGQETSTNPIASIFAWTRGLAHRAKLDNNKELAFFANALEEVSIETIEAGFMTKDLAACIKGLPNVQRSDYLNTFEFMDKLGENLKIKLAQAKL

Molecular target: Isocitrate dehydrogenase [NADP] cytoplasmic (Homo sapiens, UniProt O75874)
Experiment: Inhibition of wild type IDH1 (unknown origin) expressed in Escherichia coli BL21 using […] as substrate incubated for 5 mins prior to substrate addition measured every 30 secs

Cc1cc(Cc2ccc(O)cc2)n(O)c(=O)c1
Ki: 16.8 µM
